Data taken from publication doi:10.1101/116368v1 (biorxiv, 2017).

Target: T1, STARD1 (StAR), STARD1^S195E, residues 66-285 (Homo sapiens, UniProt P49675, S195E)
T1 sequence (P49675 66-285 S195E): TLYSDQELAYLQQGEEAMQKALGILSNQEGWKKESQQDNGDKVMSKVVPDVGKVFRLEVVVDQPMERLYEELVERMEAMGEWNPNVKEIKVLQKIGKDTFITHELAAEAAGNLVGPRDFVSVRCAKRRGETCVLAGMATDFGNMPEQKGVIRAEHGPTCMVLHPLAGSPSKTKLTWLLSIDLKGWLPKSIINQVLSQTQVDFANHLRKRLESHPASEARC
Assay: NBD fluorescence titration, quadratic fit
Assay type: binding

Work on `CC(CCC[C@@H](C)[C@H]1CC[C@H]2[C@@H]3CC=C4C[C@@H](O)CC[C@]4(C)[C@H]3CC[C@]12C)N(C)c1ccc([N+](=O)[O-])c2nonc12` (stereo partly shown) [25NC, 25-NBD-cholesterol] yielded a Kd of 130 ± 23 nM.
